According to patent US11267868:

Molecular target: human IgE
Experiment: SPR; fit kinetic; antibody as IgG; antigen as Fc_fusion_or_other_dimer; on the surface: target; avidity possible

Substance: Xolair
- Kd (pH 5.8, 3 μmol/l CaCl2 [other variable at pH 5.8: calcium (3 μM here against […] at pH 7.4)]): 13 nM
- Kd (pH 5.8, […] CaCl2): 9.9 nM
- Kd (pH 7.4, […] CaCl2): 4.4 nM
